{
  "source": "patent US11535851B2",
  "about": "“Reagents for treatment of hepatitis B virus (HBV) infection and use thereof” (priority 2016, dated 2022)",
  "key": {"[1]": {"tested_on": "HBV genotype C", "experiment": "Intracellular (liver) HBV DNA by quantitative PCR in PXB chimeric mouse model", "type": "in vivo", "details": "entecavir or pegylated interferon alone; FIG. 12, left panel", "experimental": "(§1) HBV-infected mice treated with saline served as the negative controls. Groups treated with standard of care agents against HBV served as positive controls: entecavir was administered daily at 6 μg/kg or pegylated interferon was given twice weekly at 30 μg/kg. For the anti-HBV ddRNAi treatment groups, ssAAV8-HBV-shRNAx3-v1, scAAV8-HBV-shRNAx3-v1 or ssAAV8-HBV-shmiRx3-v1 was administered once at a dose of 2×10E+13 vg/kg by a low pressure tail vein injection at Day 0. Co-treated animals started daily ETV at Day 1 or were dosed the first time with PEG-IFN on Day 4\n(§2) After the completion of blood sampling on Day 91, all the surviving animals were kept under isoflurane anesthesia and sacrificed by cardiac puncture and exsanguination. […] After the incubation, the RNAlater® solution was removed and the liver pieces were stored at −80° C. for subsequent quantification of the various hepatic HBV DNA and RNAs as well as expression levels of recombinant AAV derived shRNA or shmiR RNAs.\nTo determine the level of hepatic HBV DNA following treatment, HBV DNA was extracted from frozen RNAlater®-preserved liver tissue using the DNeasy® Blood & Tissue Kits (Qiagen K. K., Tokyo, Japan). The DNA was dissolved in 200 μL nuclease-free water, after which the concentration of the DNA solution was determined using BioPhotometer 6131 (Eppendorf Co., Ltd., Tokyo, Japan). […]"}, "[2]": {"tested_on": "HBV viral transcripts", "experiment": "Liver HBV RNA levels by RT-QPCR in PXB chimeric mouse model", "type": "in vivo", "details": "transcripts corresponding to shmiR-6, shmiR-15 and shmiR-12; FIG. 11", "experimental": "as §1\nas §2, with “exsanguination. Once sacrificed, whole livers were harvested from mice and weighed.” for “exsanguination.”\nReal-time PCR was used to quantitate the liver production of anti-HBV effector RNAi molecules and inhibition of HBV mRNA transcript as described in Examples 5 and 6.\nUsing primer/probe sets that are located near each of the RNAi-induced cleavage sites, the levels of HBV RNA was assessed by RT-QPCR (FIG. 11). […]"}},
  "note": "“Also recorded” adds a separate entry of the source.",
  "data": [
    {"substance": "pegylated interferon: HBV standard of care agent, given twice weekly at 30 μg/kg", "values": [
      {"measurement": "drop in intracellular DNA levels", "setting": "[1]", "result": 2, "unit": "logs"},
      {"measurement": "HBV RNA levels (liver)", "setting": "[2]", "result": "reduced; also recorded: strong levels of activity"}
    ]}
  ]
}
